Data as given in publication PMC4481117.

Columns and labels:
dynorphin A = experiment: cell adhesion assay; peptides coated on microtiter wells (3 h, 37 °C), post-coated with 1 % PVP; calcein-labeled HEK293 transfectants, 5x10^4 cells per well, 30 min at 37 °C; concentrations are coating concentrations
dynorphin B = experiment: as above

How did the EC50 (dynorphin A) turn out when “integrin Mac-1 (αMβ2, CD11b/CD18) on HEK293 cells (from UniProt P11215 17-1152; P05107 23-769) (receptor)” was run?
The EC50 was 0.2 to 0.5 µM.

And the EC50 (dynorphin B)?
Its EC50 is 7.5 µM.
